Test results taken from patent US20180369355A1 (TEXAS A AND M UNIVERSITY SYSTEM, published 2018).

Protein sequences, listed by entry. Tags and fused reporters are not part of them. Residues count along the entry.
UniProt Q53653, 221-559 limits assumed: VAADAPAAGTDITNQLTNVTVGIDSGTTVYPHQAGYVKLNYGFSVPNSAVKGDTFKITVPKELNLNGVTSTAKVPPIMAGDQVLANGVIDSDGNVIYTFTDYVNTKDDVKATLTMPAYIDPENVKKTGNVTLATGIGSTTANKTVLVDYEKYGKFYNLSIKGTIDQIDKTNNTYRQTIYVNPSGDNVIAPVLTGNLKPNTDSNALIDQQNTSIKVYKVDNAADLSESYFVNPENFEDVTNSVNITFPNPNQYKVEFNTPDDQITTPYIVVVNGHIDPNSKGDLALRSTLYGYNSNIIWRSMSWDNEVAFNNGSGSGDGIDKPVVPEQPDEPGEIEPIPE

Target: ClfA221-559 (S. aureus strain Newman) (UniProt Q53653)
Test: SPR (Biacore 3000); ClfA221-559 0.05-6.4 nM over captured Tefibazumab

Tefibazumab (antibody)
Kd: 0.29 nM
